# Measurements reported in patent US20130096170A1 (priority 2011, published 2013).
# Test system: infants 1 to 24 months postoperative from cardiac surgery
# Settings: for UMSS, Mean / UMSS, Median: ITT; for UMSS Awake and alert, number of patients / UMSS Deeply sedated/Deep sleep, number of patients / UMSS Minimally sedated/Sleepy, number of patients / UMSS Moderately sedated/Somnolent, number of patients / UMSS Unarousable, number of patients: N = 12, ITT
# [1] = 4 to 6 hours after start of infusion, High Dose (1.0 μg/kg bolus, 0.75 μg/kg/hour infusion)
# [2] = 4 to 6 hours after start of infusion, Moderate Dose (0.7 μg/kg bolus, 0.5 μg/kg/hour infusion)
# [3] = 12 Hours after end of infusion, Low Dose (0.35 μg/kg bolus, 0.25 μg/kg/hour infusion)
# [4] = 15 to 18 hours after end of infusion, Moderate Dose (0.7 μg/kg bolus, 0.5 μg/kg/hour infusion)
# [5] = 30-15 min prior to end of infusion, Moderate Dose (0.7 μg/kg bolus, 0.5 μg/kg/hour infusion)
# [6] = 15 min after end of infusion, High Dose (1.0 μg/kg bolus, 0.75 μg/kg/hour infusion)
# [7] = 15 min after end of infusion, Low Dose (0.35 μg/kg bolus, 0.25 μg/kg/hour infusion)
# [8] = 15 min after end of infusion, Moderate Dose (0.7 μg/kg bolus, 0.5 μg/kg/hour infusion)
# [9] = 30 min after start of infusion, High Dose (1.0 μg/kg bolus, 0.75 μg/kg/hour infusion)
# [10] = 30 min after start of infusion, Low Dose (0.35 μg/kg bolus, 0.25 μg/kg/hour infusion)
# [11] = 30 min after start of infusion, Moderate Dose (0.7 μg/kg bolus, 0.5 μg/kg/hour infusion)
# [12] = 30 minutes after end of infusion, High Dose (1.0 μg/kg bolus, 0.75 μg/kg/hour infusion)
# [13] = 60 min after end of infusion, High Dose (1.0 μg/kg bolus, 0.75 μg/kg/hour infusion)
# [14] = 60 min after end of infusion, Low Dose (0.35 μg/kg bolus, 0.25 μg/kg/hour infusion)
# [15] = 60 min after start of infusion, High Dose (1.0 μg/kg bolus, 0.75 μg/kg/hour infusion)
# [16] = 60 min after start of infusion, Moderate Dose (0.7 μg/kg bolus, 0.5 μg/kg/hour infusion)
# [17] = 2 hours after end of infusion, High Dose (1.0 μg/kg bolus, 0.75 μg/kg/hour infusion)
# [18] = 2 hours after end of infusion, Low Dose (0.35 μg/kg bolus, 0.25 μg/kg/hour infusion)
# [19] = 2 hours after end of infusion, Moderate Dose (0.7 μg/kg bolus, 0.5 μg/kg/hour infusion)
# [20] = 2 hours after start of infusion, Moderate Dose (0.7 μg/kg bolus, 0.5 μg/kg/hour infusion)
# [21] = 4 hours after end of infusion, High Dose (1.0 μg/kg bolus, 0.75 μg/kg/hour infusion)
# [22] = 4 hours after end of infusion, Low Dose (0.35 μg/kg bolus, 0.25 μg/kg/hour infusion)
# [23] = 4 hours after end of infusion, Moderate Dose (0.7 μg/kg bolus, 0.5 μg/kg/hour infusion)
# [24] = 8 hours after end of infusion, High Dose (1.0 μg/kg bolus, 0.75 μg/kg/hour infusion)
# [25] = 8 hours after end of infusion, Moderate Dose (0.7 μg/kg bolus, 0.5 μg/kg/hour infusion)
# [26] = 12 hours after start of infusion, Low Dose (0.35 μg/kg bolus, 0.25 μg/kg/hour infusion)
# [27] = End of bolus, Low Dose (0.35 μg/kg bolus, 0.25 μg/kg/hour infusion)
# [28] = Post Infusion Hour 1, High dose (1.0 μg/kg bolus, 0.75 μg/kg/hour infusion)
# [29] = Post Infusion Hour 1, Low dose (0.35 μg/kg bolus, 0.25 μg/kg/hour infusion)
# [30] = Post Infusion Hour 1, Moderate dose (0.7 μg/kg bolus, 0.5 μg/kg/hour infusion)
# [31] = Post Infusion Hour 3, High dose (1.0 μg/kg bolus, 0.75 μg/kg/hour infusion)
# [32] = Post Infusion Hour 3, Low dose (0.35 μg/kg bolus, 0.25 μg/kg/hour infusion)
# [33] = Post Infusion Hour 3, Moderate dose (0.7 μg/kg bolus, 0.5 μg/kg/hour infusion)
# [34] = Post Infusion Hour 6, High dose (1.0 μg/kg bolus, 0.75 μg/kg/hour infusion)
# [35] = Post Infusion Hour 6, Low dose (0.35 μg/kg bolus, 0.25 μg/kg/hour infusion)
# [36] = Post Infusion Hour 6, Moderate dose (0.7 μg/kg bolus, 0.5 μg/kg/hour infusion)
# [37] = Post Infusion Hour 10, High dose (1.0 μg/kg bolus, 0.75 μg/kg/hour infusion)
smiles,measurement,setting,value
Cc1cccc([C@H](C)c2cnc[nH]2)c1C [dexmedetomidine],"UMSS, Mean",[1],2.4
same,"UMSS, Median",[1],2.0
same,"UMSS, Mean",[2],1.6
same,"UMSS, Median",[2],2.0
same,"UMSS, Mean",[3],1.0
same,"UMSS, Median",[3],1.0
same,"UMSS, Mean","12 Hours after end of infusion, Moderate Dose (0.7 μg/kg bolus, 0.5 μg/kg/hour infusion)",1.0
same,"UMSS, Mean",[4],0
same,"UMSS, Median",[4],0.0
same,"UMSS, Median","30-15 min prior to end of infusion, High Dose (1.0 μg/kg bolus, 0.75 μg/kg/hour infusion)",2.0
same,"UMSS, Mean",[5],1.6
same,"UMSS, Median",[5],2.0
same,"UMSS, Mean",[6],2.6
same,"UMSS, Median",[6],3.0
same,"UMSS, Mean",[7],3.0
same,"UMSS, Median",[7],3.0
same,"UMSS, Mean",[8],1.7
same,"UMSS, Median",[8],1.0
same,"UMSS, Mean",[9],3.8
same,"UMSS, Median",[9],4.0
same,"UMSS, Mean",[10],3.5
same,"UMSS, Median",[10],4.0
same,"UMSS, Mean",[11],3.5
same,"UMSS, Median",[11],4.0
same,"UMSS, Mean",[12],2.0
same,"UMSS, Median",[12],2.0
same,"UMSS, Median","30 minutes after end of infusion, Low Dose (0.35 μg/kg bolus, 0.25 μg/kg/hour infusion)",2.0
same,"UMSS, Mean",[13],1.6
same,"UMSS, Median",[13],2.0
same,"UMSS, Mean",[14],0.8
same,"UMSS, Median",[14],1.0
same,"UMSS, Mean","60 min after end of infusion, Moderate Dose (0.7 μg/kg bolus, 0.5 μg/kg/hour infusion)",1.7
same,"UMSS, Mean",[15],3.4
same,"UMSS, Median",[15],4.0
same,"UMSS, Mean",[16],3.8
same,"UMSS, Median",[16],4.0
same,"UMSS, Mean",[17],1.3
same,"UMSS, Median",[17],1.0
same,"UMSS, Mean",[18],1.8
same,"UMSS, Median",[18],2.0
same,"UMSS, Mean",[19],1.1
same,"UMSS, Median",[19],1.0
same,"UMSS, Median","2 hours after start of infusion, High Dose (1.0 μg/kg bolus, 0.75 μg/kg/hour infusion)",3.0
same,"UMSS, Mean",[20],3.4
same,"UMSS, Median",[20],4.0
same,"UMSS, Mean",[21],1.3
same,"UMSS, Median",[21],1.0
same,"UMSS, Mean",[22],1.1
same,"UMSS, Median",[22],1.0
same,"UMSS, Mean",[23],0.8
same,"UMSS, Median",[23],0.0
same,"UMSS, Median","6 hours after start of infusion, Low Dose (0.35 μg/kg bolus, 0.25 μg/kg/hour infusion)",2.0
same,"UMSS, Mean",[24],0.4
same,"UMSS, Median",[24],0.0
same,"UMSS, Mean","8 hours after end of infusion, Low Dose (0.35 μg/kg bolus, 0.25 μg/kg/hour infusion)",1.2
same,"UMSS, Mean",[25],1.0
same,"UMSS, Median",[25],1.0
same,"UMSS, Mean",[26],2.0
same,"UMSS, Median",[26],2.0
same,"UMSS, Mean",[27],3.7
same,"UMSS, Median",[27],4.0
same,"UMSS, Median","End of infusion, Low Dose (0.35 μg/kg bolus, 0.25 μg/kg/hour infusion)",2.0
same,"UMSS Awake and alert, number of patients",[28],0 patients
same,"UMSS Deeply sedated/Deep sleep, number of patients",[28],1 patients
same,"UMSS Minimally sedated/Sleepy, number of patients",[28],0 patients
same,"UMSS Moderately sedated/Somnolent, number of patients",[28],2 patients
same,"UMSS Unarousable, number of patients",[28],8 patients
same,"UMSS Awake and alert, number of patients",[29],0 patients
same,"UMSS Deeply sedated/Deep sleep, number of patients",[29],1 patients
same,"UMSS Minimally sedated/Sleepy, number of patients",[29],1 patients
same,"UMSS Moderately sedated/Somnolent, number of patients",[29],1 patients
same,"UMSS Unarousable, number of patients",[29],9 patients
same,"UMSS Awake and alert, number of patients",[30],0 patients
same,"UMSS Deeply sedated/Deep sleep, number of patients",[30],3 patients
same,"UMSS Minimally sedated/Sleepy, number of patients",[30],0 patients
same,"UMSS Moderately sedated/Somnolent, number of patients",[30],0 patients
same,"UMSS Unarousable, number of patients",[30],9 patients
same,"UMSS Awake and alert, number of patients",[31],0 patients
same,"UMSS Deeply sedated/Deep sleep, number of patients",[31],2 patients
same,"UMSS Minimally sedated/Sleepy, number of patients",[31],1 patients
same,"UMSS Moderately sedated/Somnolent, number of patients",[31],4 patients
same,"UMSS Unarousable, number of patients",[31],4 patients
same,"UMSS Awake and alert, number of patients",[32],0 patients
same,"UMSS Deeply sedated/Deep sleep, number of patients",[32],7 patients
same,"UMSS Minimally sedated/Sleepy, number of patients",[32],2 patients
same,"UMSS Moderately sedated/Somnolent, number of patients",[32],3 patients
same,"UMSS Unarousable, number of patients",[32],0 patients
same,"UMSS Awake and alert, number of patients",[33],0 patients
same,"UMSS Deeply sedated/Deep sleep, number of patients",[33],3 patients
same,"UMSS Minimally sedated/Sleepy, number of patients",[33],2 patients
same,"UMSS Moderately sedated/Somnolent, number of patients",[33],2 patients
same,"UMSS Unarousable, number of patients",[33],5 patients
same,"UMSS Awake and alert, number of patients",[34],1 patients
same,"UMSS Deeply sedated/Deep sleep, number of patients",[34],2 patients
same,"UMSS Minimally sedated/Sleepy, number of patients",[34],0 patients
same,"UMSS Moderately sedated/Somnolent, number of patients",[34],6 patients
same,"UMSS Unarousable, number of patients",[34],1 patients
same,"UMSS Awake and alert, number of patients",[35],0 patients
same,"UMSS Deeply sedated/Deep sleep, number of patients",[35],1 patients
same,"UMSS Minimally sedated/Sleepy, number of patients",[35],2 patients
same,"UMSS Moderately sedated/Somnolent, number of patients",[35],7 patients
same,"UMSS Unarousable, number of patients",[35],1 patients
same,"UMSS Awake and alert, number of patients",[36],1 patients
same,"UMSS Deeply sedated/Deep sleep, number of patients",[36],2 patients
same,"UMSS Minimally sedated/Sleepy, number of patients",[36],3 patients
same,"UMSS Moderately sedated/Somnolent, number of patients",[36],5 patients
same,"UMSS Unarousable, number of patients",[36],1 patients
same,"UMSS Awake and alert, number of patients",[37],3 patients
same,"UMSS Deeply sedated/Deep sleep, number of patients",[37],3 patients
same,"UMSS Minimally sedated/Sleepy, number of patients",[37],2 patients
same,"UMSS Moderately sedated/Somnolent, number of patients",[37],1 patients
same,"UMSS Unarousable, number of patients",[37],0 patients
same,"UMSS Awake and alert, number of patients","Post Infusion Hour 10, Low dose (0.35 μg/kg bolus, 0.25 μg/kg/hour infusion)",3 patients

# Read-outs that look alike come from different tables or passages of the source.
